Data as given in ChEMBL document CHEMBL1144497 (Bioorg Med Chem, 2007).

Species: Mus musculus
Assay: Bioavailability in Swiss Webster mouse relative to AUDA
Assay type: ADME, organism-based
Conditions: in vivo

| SMILES | Ratio AUC |
| --- | --- |
| CCC(C)OC(=O)CCCCCCCCCCCNC(=O)NC12CC3CC(CC(C3)C1)C2 (centres undefined) | 0.6 |
| CCCCOC(=O)CCCCCCCCCCCNC(=O)NC12CC3CC(CC(C3)C1)C2 | 1.3 |
| CC(C)OC(=O)CCCCCCCCCCCNC(=O)NC12CC3CC(CC(C3)C1)C2 | 1.1 |
| CC(C)COC(=O)CCCCCCCCCCCNC(=O)NC12CC3CC(CC(C3)C1)C2 | 1.4 |
